{"source": "patent US20070248599A1", "about": "(priority 2006, published 2007)", "origin": "cited, not measured here", "target": "LDL (low-density lipoprotein) lipid receptor (Homo sapiens, UniProt P01130)", "conditions": "cited from earlier work", "data": [{"substance": "ApoE2: recombinant ApoE isoform with cysteine at residue 158, from Alpha Diagnostic", "values": [{"measurement": "normal receptor binding activity", "result": "less than 2%"}]}]}
